Measured values published in article PMC4301837, “Aldosterone synthase inhibition: cardiorenal protection in animal disease models and translation of hormonal effects to human subjects” (Journal of Translational Medicine, 2014).

How the values were obtained:
[1] = tested on: Ang-II-stimulated aldosterone synthesis; test: animal or person; conditions: Rattus norvegicus, read-out: half-maximal effective plasma LCI699 concentration (EC50), Ang-II-stimulated aldosterone
[2] = tested on: dTG rats overexpressing human renin and angiotensinogen; test: animal or person; conditions: Rattus norvegicus, feed or water, read-out: EC50 for normalizing plasma aldosterone concentration
in vivo = conditions: male, Sprague-Dawley, rat, plasma, po

Which results are given for `N#Cc1ccc([C@H]2CCc3cncn32)c(F)c1` [LCI699]?
EC50 [1]: 127 nM; EC50 [2]: 50 nM; Tmax (in vivo): 0.3 to 2.4 h
